PMC11412900 (Molecular Psychiatry, 2024)

The chains behind the UniProt entries cited, without tags or fusion partners.
UniProt P08908, whole entry: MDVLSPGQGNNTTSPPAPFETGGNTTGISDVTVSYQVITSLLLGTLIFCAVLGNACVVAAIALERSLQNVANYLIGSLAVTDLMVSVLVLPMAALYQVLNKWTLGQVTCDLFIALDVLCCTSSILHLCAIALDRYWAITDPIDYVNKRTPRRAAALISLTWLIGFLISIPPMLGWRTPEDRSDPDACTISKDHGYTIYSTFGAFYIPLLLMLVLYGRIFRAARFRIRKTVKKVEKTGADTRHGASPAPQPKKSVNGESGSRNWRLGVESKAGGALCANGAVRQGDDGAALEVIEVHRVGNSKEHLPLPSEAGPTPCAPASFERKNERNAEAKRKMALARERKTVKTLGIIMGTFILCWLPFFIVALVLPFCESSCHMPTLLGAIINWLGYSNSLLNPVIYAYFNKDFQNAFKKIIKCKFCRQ

Biological target: T1, h5-HT1AR (Homo sapiens, UniProt P08908)
T1 construct: purchased Perkin Elmer, Inc. (Waltham, MA, USA)
Assay: Radioligand binding, [3H]8-OH-DPAT displacement
Description: Binding assays were performed as described previously. Briefly, membrane preparations expressing h5-HT1AR, h5-HT2AR or hSERT (see Supplementary Material) were incubated with radiolabeled selective ligands 0.4 nM [^3H]8-OH-DPAT, 1 nM [^3H]ketanserin or 3 nM [^3H]imipramine, respectively. The drugs were diluted in the corresponding binding buffer and tested at increasing concentrations in duplicate. Binding reactions were performed in tubes containing the drug dilutions; 25 μl of the corresponding radioligand; and the membranes (10 μg and 5 μg/500 μL for 5-HT1AR and 5-HT2AR, respectively, and 15 μg/100 μL for hSERT), all diluted in binding buffer. […] Incubation was performed for 1 h at 27 °C for 5-HT1A/2AR and 22 °C for hSERT, according to the manufacturer’s protocol (Perkin Elmer, Inc., Waltham, MA, USA) and previous studies - saturation and kinetic experiments, respectively. The binding reactions were stopped by rapid filtration through GF/B glass microfiber filters pre-soaked with 0.5% polyethyleneimine and washing with ice-cold wash buffer. The filters were placed into vials and scintillation cocktail was added. The trapped radioactivity was quantified. Specific binding was defined as the difference between total binding (binding buffer alone) and non-specific binding. Experiments were conducted per duplicate for at least three independent experiments.

For `COc1ccc2[nH]cc(CCN(C)C)c2c1` [5-MeO-DMT, 5-methoxy-N,N-dimethyltryptamine], the Ki was 2.57 ± 0.09 nM.
